Among the targets are AGTRL1 (Homo sapiens, UniProt P35414); OPRD1 (Homo sapiens, UniProt P41143); OPRL1 (Homo sapiens, UniProt P41146); VIPR1 (Homo sapiens, UniProt P32241).
Settings in all cases: screen, control agonist; CHO, RT, 2HR

Chains of the proteins cited; added tags and fusions are not shown. Lines headed by an entry give the natural chain unless they say otherwise; changes in a name come on top. Residues count along the entry.
UniProt P35414: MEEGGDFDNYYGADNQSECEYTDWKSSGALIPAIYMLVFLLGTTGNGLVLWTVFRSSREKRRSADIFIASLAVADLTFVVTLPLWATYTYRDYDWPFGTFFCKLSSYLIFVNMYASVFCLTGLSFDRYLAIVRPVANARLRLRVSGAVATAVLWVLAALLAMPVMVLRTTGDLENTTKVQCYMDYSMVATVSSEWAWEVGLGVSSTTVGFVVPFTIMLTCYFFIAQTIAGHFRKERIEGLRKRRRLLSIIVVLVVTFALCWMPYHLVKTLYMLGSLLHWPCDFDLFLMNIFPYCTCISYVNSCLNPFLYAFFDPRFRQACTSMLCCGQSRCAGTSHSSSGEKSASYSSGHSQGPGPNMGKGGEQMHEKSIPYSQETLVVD
UniProt P41143, whole entry: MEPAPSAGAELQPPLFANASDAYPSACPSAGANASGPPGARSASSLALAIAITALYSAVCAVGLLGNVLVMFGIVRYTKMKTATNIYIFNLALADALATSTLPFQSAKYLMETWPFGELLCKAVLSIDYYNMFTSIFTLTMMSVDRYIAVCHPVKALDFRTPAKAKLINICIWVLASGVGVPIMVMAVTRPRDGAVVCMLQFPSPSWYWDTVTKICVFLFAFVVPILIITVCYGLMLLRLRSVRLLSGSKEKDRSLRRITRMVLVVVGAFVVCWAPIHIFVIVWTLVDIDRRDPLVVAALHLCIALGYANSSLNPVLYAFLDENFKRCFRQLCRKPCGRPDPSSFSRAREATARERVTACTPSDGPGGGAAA
UniProt P41146: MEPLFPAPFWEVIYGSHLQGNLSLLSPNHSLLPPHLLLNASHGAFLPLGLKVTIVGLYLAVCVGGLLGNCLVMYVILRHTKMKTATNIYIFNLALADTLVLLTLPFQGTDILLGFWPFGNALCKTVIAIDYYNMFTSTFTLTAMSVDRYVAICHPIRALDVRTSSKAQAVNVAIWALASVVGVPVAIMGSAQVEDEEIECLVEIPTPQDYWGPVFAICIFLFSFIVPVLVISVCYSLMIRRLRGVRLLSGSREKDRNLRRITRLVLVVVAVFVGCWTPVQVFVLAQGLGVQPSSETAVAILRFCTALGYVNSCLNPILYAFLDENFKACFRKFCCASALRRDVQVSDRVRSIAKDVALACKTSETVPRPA
UniProt P32241, 31-457: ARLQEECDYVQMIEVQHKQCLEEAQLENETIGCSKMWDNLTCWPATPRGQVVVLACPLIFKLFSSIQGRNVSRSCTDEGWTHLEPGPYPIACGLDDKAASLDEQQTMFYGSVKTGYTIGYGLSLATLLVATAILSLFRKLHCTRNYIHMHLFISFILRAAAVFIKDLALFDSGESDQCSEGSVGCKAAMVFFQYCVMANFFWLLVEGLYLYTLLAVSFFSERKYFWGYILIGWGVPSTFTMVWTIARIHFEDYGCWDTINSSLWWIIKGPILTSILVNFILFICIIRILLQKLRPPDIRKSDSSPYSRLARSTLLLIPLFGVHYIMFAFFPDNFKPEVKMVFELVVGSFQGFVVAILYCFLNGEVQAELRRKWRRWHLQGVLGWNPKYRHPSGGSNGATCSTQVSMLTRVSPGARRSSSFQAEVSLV

Substance Apelin-13 registered an EC80 on AGTRL1 of 2.28 nM.

For DADLE, the EC80 on OPRD1 was found to be 7.54 nM.

On OPRL1, Orphanin FQ came in with an EC80 of 0.0172 µM. This counts as double-digit nanomolar.

In the assay with VIPR1, “VIP: control agonist for VIPR1 and VIPR2” came in with an EC80 of 3.7 nM.

The EC80 is the point of the concentration-response curve where the effect stands at 80%.

Values taken from article PMC9798004 (Frontiers in Psychiatry, 2022).
